The values that follow are results of earlier work, collected in article PMC10279755 (Nature Communications, 2023).

The target of the data set is aminopeptidase N (APN, also known as CD13). More on the design: method as in PMID 15992355. The note with it: reported value; cited from earlier work.

SMILES strings stand for the structures.

By IC50 is commonly meant the concentration that gives 50% inhibition. Consider `COc1cc(/C=C/C(=O)CC(=O)/C=C/c2ccc(O)c(OC)c2)ccc1O` [curcumin], for which the IC50 was 10 µM.
